In PubChem BioAssay AID588458 (Sanford-Burnham Center for Chemical Genomics, 2011) one finds inhibition (reported as % activation of signal) data, which are given here for 26 compounds.

Protein sequences, listed by entry. Tags and fused reporters are not part of them. Residues count along the entry.
UniProt P26358, 504-1616 limits assumed: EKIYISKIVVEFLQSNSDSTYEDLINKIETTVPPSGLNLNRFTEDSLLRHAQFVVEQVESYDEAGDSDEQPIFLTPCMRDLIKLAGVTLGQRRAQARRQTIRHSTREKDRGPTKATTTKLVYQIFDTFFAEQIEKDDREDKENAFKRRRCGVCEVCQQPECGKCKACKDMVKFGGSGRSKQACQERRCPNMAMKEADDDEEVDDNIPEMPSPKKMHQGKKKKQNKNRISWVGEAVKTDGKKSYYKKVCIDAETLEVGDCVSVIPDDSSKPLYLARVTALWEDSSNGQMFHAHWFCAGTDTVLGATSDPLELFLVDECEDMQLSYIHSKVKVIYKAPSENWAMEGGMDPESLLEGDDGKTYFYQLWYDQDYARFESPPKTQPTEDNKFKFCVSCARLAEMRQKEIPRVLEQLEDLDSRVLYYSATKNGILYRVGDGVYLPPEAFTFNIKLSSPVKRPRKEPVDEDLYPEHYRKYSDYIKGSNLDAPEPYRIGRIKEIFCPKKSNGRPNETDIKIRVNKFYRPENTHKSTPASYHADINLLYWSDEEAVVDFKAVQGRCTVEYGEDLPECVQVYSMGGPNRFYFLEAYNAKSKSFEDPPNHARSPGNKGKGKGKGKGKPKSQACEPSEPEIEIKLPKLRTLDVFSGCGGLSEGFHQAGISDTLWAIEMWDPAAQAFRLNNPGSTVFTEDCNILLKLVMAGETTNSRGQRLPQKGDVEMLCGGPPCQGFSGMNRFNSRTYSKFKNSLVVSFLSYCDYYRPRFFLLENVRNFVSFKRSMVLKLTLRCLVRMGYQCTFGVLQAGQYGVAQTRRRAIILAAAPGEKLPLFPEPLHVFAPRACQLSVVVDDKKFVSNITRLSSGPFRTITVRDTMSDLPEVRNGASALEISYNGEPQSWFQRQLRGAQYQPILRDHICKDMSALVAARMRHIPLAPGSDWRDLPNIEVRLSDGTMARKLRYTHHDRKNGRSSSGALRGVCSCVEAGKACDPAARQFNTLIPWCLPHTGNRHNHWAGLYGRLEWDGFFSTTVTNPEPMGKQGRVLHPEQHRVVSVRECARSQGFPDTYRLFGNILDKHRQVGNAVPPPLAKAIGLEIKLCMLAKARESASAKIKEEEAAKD

Only a part is listed here, and it is no random draw. Some of these compounds have results that are not shown, active ones among them. The source made the active and inactive calls. No stated cut-off is given here; in the data, active means inhibition above about 50%; inactive means the rest.

The target in the experiment is DNA (cytosine-5)-methyltransferase 1 (Homo sapiens) (UniProt P26358). Kind of experiment: human DNMT1 methyltransferase inhibitors, primary screen, biochemical, molecular beacon, fluorescence, HinP1I cleavage, uHTS (AID 588458). To be noted: at 10 µM, active compounds read high.
On to `COc1cc(SC)ccc1C(=O)NCC1(N(C)C)CCCCC1`, for which the inhibition (reported as % activation of signal) is inactive: 1.5%.

Take `CCN(CC)CC(C)C(C)OC(=O)C(O)(c1ccccc1)c1ccccc1` (stereo unspecified): the inhibition (reported as % activation of signal) is inactive: -0.84%.

Take `CC(C)N1C(=O)CC2(CCN(CCOC(=O)C(O)(c3ccccc3)c3ccccc3)CC2)C1=O`: the inhibition (reported as % activation of signal) is inactive: -1.68%.

For the compound `Cc1ccc(C(=O)NCC2(N3CCCCC3)CCCCC2)cc1`, the inhibition (reported as % activation of signal) is inactive: -2.46%.

As to `O=C(NCC1(N2CCCCC2)CCCCC1)c1cc([N+](=O)[O-])ccc1Cl`, the inhibition (reported as % activation of signal) was inactive: 9.01%.

Turning to `CN1[C@@H]2CC[C@H]1CC(OC(=O)C(O)(c1ccccc1)c1ccccc1)C2` (stereo partly specified), the inhibition (reported as % activation of signal) was inactive: 0.94%.

As for `O=C(NCC1(N2CCCCC2)CCCCC1)c1cc(F)c(F)cc1Cl`, the inhibition (reported as % activation of signal) is inactive: -0.58%.

Turning to `C=CCN1CCN(CCOC(=O)C(O)(c2ccccc2)c2ccccc2)CC1`, the inhibition (reported as % activation of signal) is inactive: 0.87%.

For the compound `COc1ccc(C(=O)NCC2(N(C)C)CCCCC2)cc1`, the inhibition (reported as % activation of signal) was inactive: 0.25%.

For `O=C(NCC1(N2CCCCC2)CCCCC1)c1cccc(Br)c1`, the inhibition (reported as % activation of signal) is inactive: 1.02%.

For the compound `Cc1cc(C(=O)NCC2(N3CCCCC3)CCCCC2)ccc1[N+](=O)[O-]`, the inhibition (reported as % activation of signal) is inactive: -1.04%.

Regarding `CCN1CCCC(OC(=O)C2(O)c3ccccc3C=Cc3ccccc32)C1` (stereo unspecified), the inhibition (reported as % activation of signal) was inactive: 0.04%.

In the case of `CN(C)C1CCCC1OC(=O)C(O)(c1ccccc1)c1ccccc1` (stereo unspecified), the inhibition (reported as % activation of signal) is inactive: 2.13%.

Consider `CN(C)c1ccc(C(=O)NCC2(N(C)C)CCCCC2)cc1`, for which the inhibition (reported as % activation of signal) is inactive: 0.19%.

On to `Cc1ccccc1C(=O)NCC1(N2CCCCC2)CCCCC1`, for which the inhibition (reported as % activation of signal) was inactive: 2.61%.

With `COc1ccc(Cl)cc1C(=O)NCC1(N(C)C)CCCCC1`, the inhibition (reported as % activation of signal) is inactive: -0.38%.

For `COc1cccc(C(=O)NCC2(N3CCCCC3)CCCCC2)c1`, the inhibition (reported as % activation of signal) is inactive: 0.69%.

Regarding `O=C(NCC1(N2CCCCC2)CCCCC1)c1cccc(Cl)c1`, the inhibition (reported as % activation of signal) was inactive: 4.97%.

Regarding `CN(C)C1(CNC(=O)c2ccc(Br)cc2)CCCCC1`, the inhibition (reported as % activation of signal) was inactive: -1.66%.

Consider `COc1cc(C(=O)NCC2(N(C)C)CCCCC2)c([N+](=O)[O-])cc1OC`, for which the inhibition (reported as % activation of signal) was inactive: -0.03%.

As for `C=C(C)C#CC(O)(C(=O)OC1CCN(C)CC1)c1ccccc1` (stereo unspecified), the inhibition (reported as % activation of signal) was inactive: 1.69%.

On to `COc1ccc(Br)c(C(=O)NCC2(N3CCCCC3)CCCCC2)c1`, for which the inhibition (reported as % activation of signal) is inactive: -2.99%.

Turning to `O=C(OCCN1CCCC1)C(O)(c1ccccc1)c1ccccc1`, the inhibition (reported as % activation of signal) is inactive: 2.4%.

As for `CC(C)Oc1ccc(C(=O)NCC2(N(C)C)CCCCC2)cc1`, the inhibition (reported as % activation of signal) is inactive: 2.15%.

For the compound `CN(C)c1cccc(C(=O)NCC2(N(C)C)CCCCC2)c1`, the inhibition (reported as % activation of signal) is inactive: -0.59%.

`O=C(OC1CN2CCC1CC2)C(CO)(c1ccccc1)c1ccccc1` (stereo unspecified): the inhibition (reported as % activation of signal) is inactive: 0.19%.
